# Laboratory results reported in PubChem BioAssay AID1018 (Sanford-Burnham Center for Chemical Genomics, 2008).
# By UniProt entry, the sequences of proteins in these tests, tags left out.
# UniProt P98170, whole entry: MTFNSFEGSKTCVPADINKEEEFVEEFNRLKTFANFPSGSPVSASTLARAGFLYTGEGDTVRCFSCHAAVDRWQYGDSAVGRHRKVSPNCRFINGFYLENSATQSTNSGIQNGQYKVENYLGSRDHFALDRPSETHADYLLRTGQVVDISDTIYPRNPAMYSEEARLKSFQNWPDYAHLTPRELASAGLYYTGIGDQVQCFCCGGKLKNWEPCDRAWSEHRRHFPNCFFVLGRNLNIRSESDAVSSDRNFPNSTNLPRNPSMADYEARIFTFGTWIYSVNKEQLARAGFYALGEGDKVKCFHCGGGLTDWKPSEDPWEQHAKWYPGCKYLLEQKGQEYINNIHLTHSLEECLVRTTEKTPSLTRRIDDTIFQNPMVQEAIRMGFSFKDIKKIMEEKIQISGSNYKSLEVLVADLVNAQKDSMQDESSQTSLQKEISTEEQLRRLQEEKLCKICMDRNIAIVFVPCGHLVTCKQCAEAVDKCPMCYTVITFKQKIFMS
# The list shows a part of the results, in another mix than the full data. The source made the active and inactive calls. Cut-off read from the data, not from the text of the source: active = displacement above about 50%; inactive = the rest.
# Target: E3 ubiquitin-protein ligase XIAP (Homo sapiens) (UniProt P98170)
# Experiment: small molecules displacing peptide from XIAP – biochemical, IAP family, fluorescence polarization (AID 1018)
# Conditions: XIAP BIR domain, at 20 µM, active compounds read high
row,Structure (SMILES),displacement
1,CN(C)CCOC(=O)C(O)(c1ccccc1)C1CCCC1 (stereo not given),inactive: -4.3%
2,COc1ccc(OP(C)(=O)Nc2ccccn2)cc1 (stereo not given),inactive: -3.9%
3,CCc1ccc(OP(C)(=O)O)cc1,inactive: -5.3%
4,COc1ccccc1OP(C)(=O)Nc1ccc(C)cc1C (stereo not given),inactive: -21.2%
5,CP(=O)(Nc1ccccn1)Oc1ccccc1 (stereo not given),inactive: -2.8%
6,O=[N+]([O-])c1cc([N+](=O)[O-])c(Nc2ccccn2)c([N+](=O)[O-])c1,inactive: -2.9%
7,Cc1c(NP(C)(=O)Oc2ccc(C(C)C)cc2)c(=O)n(-c2ccccc2)n1C (stereo not given),inactive: -3.4%
8,COc1ccc(OP(C)(=O)Nc2ccccc2Br)cc1 (stereo not given),inactive: -7.2%
9,COc1ccccc1OP(C)(=O)Nc1ccc(C)c(C)c1 (stereo not given),inactive: -4.4%
10,Cc1cc(C)cc(OP(C)(=O)Nc2cccc(C(F)(F)F)c2)c1 (stereo not given),inactive: -6.2%
11,CP(=O)(OCCOc1ccccc1)OCCOc1ccccc1,inactive: -6.3%
12,CP(=O)(Nc1ccc(Cl)cc1Cl)Oc1ccccc1 (stereo not given),inactive: -2.3%
13,Cc1nc2ccc3ccccc3c2o1.O=[N+]([O-])c1cc([N+](=O)[O-])c(O)c([N+](=O)[O-])c1,inactive: -4.3%
14,CP(=O)(OC12CC3CC(CC(C3)C1)C2)OC12CC3CC(CC(C3)C1)C2,inactive: -17.9%
15,CCOC(=O)c1ccc(NP(C)(=O)Oc2ccc(Cl)cc2)cc1 (stereo not given),inactive: -5.4%
16,CCc1ccc(OP(C)(=O)Nc2cccnc2)cc1 (stereo not given),inactive: -5.9%
17,CP(=O)(Oc1ccccc1)N1CCOC1=O (stereo not given),inactive: -5.2%
18,COc1ccccc1OP(C)(=O)Nc1c(C)n(C)n(-c2ccccc2)c1=O (stereo not given),inactive: -6.7%
19,COc1ccc(OP(C)(=O)Nc2ccc(Br)cc2)cc1 (stereo not given),inactive: -4.3%
20,CCN(CC)CC(O)COC(=O)C(O)(c1ccccc1)C1CCCCC1 (stereo not given),inactive: -0.3%
21,CN(C)C(=O)c1c([N+](=O)[O-])cc([N+](=O)[O-])cc1[N+](=O)[O-],inactive: -1%
22,CP(=O)(Nc1ccc(Cl)cc1)Oc1ccc(F)cc1 (stereo not given),inactive: -0.5%
23,CC(C)(C)c1ccc(OP(C)(=O)O)cc1,inactive: -6.7%
24,COc1ccccc1OP(C)(=O)Nc1ccccc1Br (stereo not given),inactive: -4.5%

row,Structure (SMILES),displacement
1,CCOP(C)(=S)SCC(=O)NC(C)(CC)C(=O)O (stereo not given),inactive: -2.9%
2,Cc1ccccc1NP(C)(=O)Nc1ccccc1C,inactive: -2.5%
3,CP(=O)(Nc1ccc2c(c1)OCCO2)Oc1ccccc1 (stereo not given),inactive: -2.2%
4,COc1ccc(NP(C)(=O)Oc2ccccc2OC)cc1 (stereo not given),inactive: -2.8%
5,CN(C)CCOC(=O)C(O)(c1ccccc1)C1CCCCC1 (stereo not given),inactive: -2.9%
6,COc1ccc(OP(C)(=O)Nc2cccc(Br)c2)cc1 (stereo not given),inactive: -1.5%
7,O=[N+]([O-])c1cc([N+](=O)[O-])c(NCC2CCS(=O)(=O)C2)c([N+](=O)[O-])c1 (stereo not given),inactive: -0.8%
8,COc1ccc(OP(C)(=O)Nc2ccc(SC(F)(F)F)cc2)cc1 (stereo not given),inactive: -8.2%
9,CCOC(=O)c1ccc(NP(C)(=O)Oc2ccc(F)cc2)cc1 (stereo not given),inactive: -4.4%
10,CP(=O)(Nc1ccccc1)Oc1ccc(F)cc1 (stereo not given),inactive: -2.6%
11,CCN(CC)CCCOC(=O)C(O)(c1ccccc1)C1CCCCC1 (stereo not given),inactive: -0.1%
12,CC(C)c1ccc(OP(C)(=O)Nc2ccc(SC(F)(F)F)cc2)cc1 (stereo not given),inactive: 8.5%
13,CP(=O)(Nc1ccccc1F)Oc1ccccc1 (stereo not given),inactive: -3.7%
14,O=C(OCCN1CCN(CCOCc2ccccc2)CC1)C(O)(c1ccccc1)c1ccccc1,inactive: -0.1%
15,Cc1cc(C)cc(OP(C)(=O)Nc2ccc(C)cc2C)c1 (stereo not given),inactive: -3.8%
16,CCOC(=O)c1ccc(NP(C)(=O)Oc2cc(C)cc(C)c2)cc1 (stereo not given),inactive: -3.5%
17,CP(=O)(Nc1cccc(Br)c1)Oc1ccccc1 (stereo not given),inactive: -7.4%
18,Cc1cc(C)cc(OP(C)(=O)Nc2ccccn2)c1 (stereo not given),inactive: -1.8%
19,Cc1ccc(C)c(NP(C)(=O)Oc2ccccc2)c1 (stereo not given),inactive: -1.7%
20,CC1=NCCc2c1[nH]c1ccccc21.O=[N+]([O-])c1cc([N+](=O)[O-])c(O)c([N+](=O)[O-])c1,inactive: -3.9%
21,CP(=O)(Nc1ccc(SC(F)(F)F)cc1)Oc1ccccc1 (stereo not given),inactive: -1%
22,CCCOc1ccc(NP(C)(=O)Oc2ccc(Cl)cc2)cc1 (stereo not given),inactive: -3%
23,COc1ccccc1OP(C)(=O)Nc1c(C)cccc1C (stereo not given),inactive: -6.4%
24,CN1CCCCC1COC(=O)C1(O)c2ccccc2CCc2ccccc21 (stereo not given),inactive: -2.8%

row,Structure (SMILES),displacement
1,O=[N+]([O-])c1cc([N+](=O)[O-])c(-n2nnc3ccccc32)c([N+](=O)[O-])c1,inactive: -0.3%
2,Cc1nc2ccc3ccccc3c2s1.O=[N+]([O-])c1cc([N+](=O)[O-])c(O)c([N+](=O)[O-])c1,inactive: -1.5%
3,Cc1cc(C)cc(OP(C)(=O)Nc2ccc(SC(F)(F)F)cc2)c1 (stereo not given),inactive: -3.8%
4,CP(=O)(NC(=O)Nc1ccccc1)Oc1ccccc1 (stereo not given),inactive: 1.4%
5,CP(=O)(Oc1ccccc1)OC(c1ccccc1)C(F)(F)F (stereo not given),inactive: -2.5%
6,Cc1cccc(C)c1OP(C)(=O)Nc1ccc(SC(F)(F)F)cc1 (stereo not given),inactive: -4.4%
7,CP(=O)(Nc1ccccn1)Oc1ccc(Cl)cc1 (stereo not given),inactive: -3.6%
8,CCOP(C)(=S)SCC(=O)NC(C)C(=O)O (stereo not given),inactive: -2.2%
9,CCOC(=O)c1ccc(NP(C)(=O)Oc2ccc(OC)cc2)cc1 (stereo not given),inactive: -0.8%
10,COc1ccccc1OP(C)(=O)Nc1ccccc1 (stereo not given),inactive: 0.5%
11,CP(=O)(Nc1ccccc1Br)Oc1ccccc1 (stereo not given),inactive: -23.5%
12,CP(=S)(Nn1cnnc1)Oc1ccccc1 (stereo not given),inactive: 1%
13,Cc1cccc(C)c1OP(C)(N)=O (stereo not given),inactive: -4.9%
14,CC(C)(C)c1ccc(OP(C)(=O)Nc2ccc(SC(F)(F)F)cc2)cc1 (stereo not given),inactive: -4.5%
15,O=[N+]([O-])c1ccc2c(c1)C=Nc1ccccc1O2,inactive: -6.7%
16,COc1ccc(OP(C)(=O)Nc2cccc(F)c2)cc1 (stereo not given),inactive: -7.3%
17,COc1ccccc1OP(C)(=O)Nc1cc(Cl)ccc1C (stereo not given),inactive: -6%
18,Cc1cc(C)cc(OP(C)(N)=O)c1 (stereo not given),inactive: -8.4%
19,CCOC(=O)c1ccc(NP(C)(=O)Oc2ccccc2)cc1 (stereo not given),inactive: -0.9%
20,Cc1ccc(NP(C)(=O)Oc2ccccc2)c(C)c1 (stereo not given),inactive: -8.8%
21,COc1ccccc1OP(C)(=O)Nc1ccc(C)cc1 (stereo not given),inactive: -7.6%
22,CCN(CC)CCCOC(=O)C(O)(c1ccccc1)c1ccccc1,inactive: -0.7%
